Values of other authors in US20180271470A1, “METHODS FOR QUANTIFYING PANCREATIC BETA CELL FUNCTION AND MASS PROPERTIES WITH RADIOMANGANESE POSITRON EMISSION TOMOGRAPHY” (Wisconsin Alumni Research Foundation, priority 2017, published 2018).

By UniProt entry, the sequences of proteins in these tests, tags left out.
UniProt Q05940, whole entry, species assumed: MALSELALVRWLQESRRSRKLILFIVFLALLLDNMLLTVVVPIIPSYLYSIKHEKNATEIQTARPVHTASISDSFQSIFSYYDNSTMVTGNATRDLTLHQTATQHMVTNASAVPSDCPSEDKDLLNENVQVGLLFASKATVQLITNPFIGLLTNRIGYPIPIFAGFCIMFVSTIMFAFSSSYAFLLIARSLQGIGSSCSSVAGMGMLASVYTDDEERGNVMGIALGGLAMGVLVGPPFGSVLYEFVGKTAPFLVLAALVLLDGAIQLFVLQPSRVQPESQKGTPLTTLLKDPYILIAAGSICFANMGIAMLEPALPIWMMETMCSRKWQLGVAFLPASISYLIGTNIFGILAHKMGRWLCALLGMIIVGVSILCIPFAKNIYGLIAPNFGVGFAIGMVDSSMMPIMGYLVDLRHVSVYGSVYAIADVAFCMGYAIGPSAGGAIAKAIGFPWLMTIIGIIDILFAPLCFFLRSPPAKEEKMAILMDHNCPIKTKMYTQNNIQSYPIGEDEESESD

Molecular target: type 2 vesicular transporter (VMAT2) (Homo sapiens, UniProt Q05940)
Details: cited from earlier work

Question: With COc1cc2c(cc1O[11CH3])CCN1CC(CC(C)C)C(O)CC21 (stereo not shown) [[^11C]-DTBZ, [^11C]-Dihydrotetrabenazine] as the compound, how does the “affinity for VMAT2” value read?
Answer: Its value is “high affinity”.
